The values below come from ChEMBL document CHEMBL1146777, “Interaction with the S1 beta-pocket of urokinase: 8-heterocycle substituted and 6,8-disubstituted 2-naphthamidine urokinase inhibitors” (Bioorg Med Chem Lett, 2004).

The target of this test is Urokinase-type plasminogen activator (Homo sapiens, UniProt P00749).

The term Ki denotes the dissociation constant of the complex between target and ligand, obtained from inhibition or displacement. Lower therefore signals tighter binding.

Compound `COc1ccc2ccc(C(=N)N)cc2c1C1CCOC1` (stereo not given) gave a Ki of 530 nM. In the case of `CCS(=O)(=O)c1cc(-c2cc(C(=O)Nc3ccccc3)cc3ccc(C(=N)N)cc23)co1`, the affinity, expressed as Ki, was 18 nM.

`COc1ccc2ccc(C(=N)N)cc2c1-c1cnn(S(C)(=O)=O)c1` gave a Ki of 630 nM. Regarding `COc1ccc2ccc(C(=N)N)cc2c1-c1ccco1`, the affinity, expressed as Ki, was 2100 nM. The same measure for `CC(C)Oc1cccc(NC(=O)c2cc(C3CCOC3)c3cc(C(=N)N)ccc3c2)c1` (stereo not given): 8.5 nM.
